Earlier results in publication PMC12399788, “A Comparison of the Molecular Pharmacological Properties of Current Short, Long, and Ultra‐Long‐Acting β2‐Agonists Used for Asthma and COPD” (Pharmacology Research & Perspectives, 2025).

Key:
guinea pig tracheal = tested on: guinea pig tracheal; parameters: method as in PMID 20402514; conditions: guinea pig tracheal studies

OCc1cc(C(O)CNCCCCCCOCCCCc2ccccc2)ccc1O (stereo not drawn) [Salmeterol, salmeterol]
duration of action (human trachea): > 125 min | duration (guinea pig tracheal): over 12 h | duration relative to formoterol, fenoterol, salbutamol and terbutaline (isolated human bronchus): 40 times longer
